## Measured affinities in a library of Ab-95 light chain variants

Reference: Engelhart et al. 2022, doi:10.1038/s41597-022-01779-4. File: FLAb, binding data.

Target peptide (SARS-CoV-2 spike, HR2 region): PDVDLGDISGINAS

Parent scFv Ab-95: VH joined to VL by the linker GGGGSGGGGSGGGGS. Changes lie in the light chain CDRs alone.
VH: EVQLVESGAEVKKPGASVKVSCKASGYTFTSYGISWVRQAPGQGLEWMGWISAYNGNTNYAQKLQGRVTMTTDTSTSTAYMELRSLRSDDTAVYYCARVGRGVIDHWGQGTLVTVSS
VL: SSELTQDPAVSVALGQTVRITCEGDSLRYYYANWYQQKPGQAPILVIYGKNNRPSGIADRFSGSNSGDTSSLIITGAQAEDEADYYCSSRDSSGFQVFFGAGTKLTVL

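Phage display of a naive human antibody library on the peptide gave the parent. In library AAYL52, one, two or three CDR residues were substituted; doubles and triples were drawn at random. The assay is AlphaSeq: two haploid yeast populations carry antibody and antigen on their surface. The frequency of each diploid, read from paired DNA barcodes, reflects how well the two displayed proteins bind. The ratio of observed to expected reads was calibrated, replicate by replicate, on BCL2-family standards whose Kd was known from biolayer interferometry. Mating was done three times.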

Substitutions are numbered in sequence along the VL above, starting at 1 (not Kabat). Affinities are written as log10 Kd with Kd in nM; a lower number is a better binder. A pair that was not seen in that replicate is written "ND"; this usually means weak binding, but a binder can also be missed. Three control strains display no target. For library AAYL52, 28% of the pairings with them gave a signal, with a median of 3.91 and one signal in twenty below 2.90, so weak values seen in few replicates may be background. The control count says in how many pairings with the empty strains this scFv gave a signal, with their mean in brackets.

changes	log10 Kd (nM) by replicate	empty controls
D25L+S88I+R90G	ND / ND / ND	0/9
D25F+N51S+N52R	3.80 / 3.21 / ND	4/9 (3.23)
G24R+S26R+R90M	4.41 / 3.15 / ND	3/9 (4.36)
S55G+D91Q+F98H	ND / ND / 3.53	1/9 (2.23)
E23D+R53T	2.40 / 2.41 / 2.17	2/9 (4.13)
E23F+A32F+D91M	3.66 / 3.56 / 4.39	6/9 (4.74)
D25F+S93R+Q96D	ND / 4.99 / ND	0/9
Y29N+S93A+F95Q	2.39 / 3.46 / 2.44	1/9 (4.04)
N52Q+P54S+S55D	1.48 / 1.52 / 1.16	3/9 (3.76)
S93Q	1.67 / 1.56 / 1.10	1/9 (3.93)
G49M+F95I	ND / ND / ND	4/9 (4.42)
E23Y+Y31M+P54W	4.08 / 5.52 / 2.68	3/9 (2.99)
A32E+S89I+F95D	3.61 / 4.63 / ND	5/9 (3.62)
G24F+Y31K	2.55 / 3.18 / 2.44	2/9 (4.41)
G94M+Q96M+F98A	2.56 / 2.09 / 1.91	1/9 (4.50)
G24P+R90P+Q96Y	ND / 4.80 / ND	3/9 (4.24)
S26V+G49A+S55V	3.36 / ND / ND	4/9 (3.94)
E23A+Y29F+N33V	2.59 / 2.03 / 1.90	2/9 (3.47)
R28A+R90N+D91H	3.26 / 3.55 / 2.05	4/9 (4.06)
R28F+N52I+S88W	2.25 / 2.34 / 2.13	2/9 (4.02)
Y31N+Q96W+V97W	3.52 / 2.43 / 3.48	2/9 (3.67)
Y30K+P54Y+F98R	2.74 / 2.52 / 2.27	0/9
G24N+Y30C+N51K	4.98 / ND / ND	1/9 (5.39)
L27W+R28Y+N51E	ND / ND / ND	4/9 (4.05)
Y30M+A32H+R53H	4.29 / ND / ND	1/9 (3.47)
S26D+S55I+V97W	2.99 / 3.16 / 3.27	3/9 (3.85)
N33K+S88R+R90A	ND / 5.56 / ND	5/9 (3.45)
Y30S+N33V+Q96H	2.51 / 2.91 / 3.93	2/9 (3.58)
K50P+S89W+R90W	2.42 / 2.17 / 1.67	1/9 (4.15)
E23R+G24A+R28E	2.44 / 2.67 / 2.50	5/9 (4.19)
R28S+Y31D+R90M	1.57 / 1.42 / 1.11	1/9 (3.19)
Y29S+S88A+Q96Y	1.53 / 1.45 / 1.13	3/9 (3.57)
E23H+G24H+Q96F	4.01 / 2.95 / 4.30	0/9
L27W+N51L+F95D	3.59 / 5.52 / ND	3/9 (3.65)
Y30T+G49P+P54S	3.19 / 4.00 / 2.93	3/9 (3.21)
R28E+G49W+V97M	4.65 / ND / ND	1/9 (3.65)
S89W+V97F	3.50 / 3.44 / ND	2/9 (3.05)
E23C+G94R	2.50 / 2.83 / ND	2/9 (3.78)
Y29G+K50T+Q96F	2.04 / 1.92 / 1.47	2/9 (4.44)
S89F+S93H+F98G	2.53 / 1.84 / 1.29	2/9 (3.46)
R28T+Y31G+S55C	2.19 / 2.28 / 2.05	4/9 (4.79)
E23Y	2.64 / 2.45 / 2.31	5/9 (4.38)
E23F+S26H+L27V	ND / 3.69 / ND	4/9 (3.94)
L27A+S55P+S92M	3.44 / 5.28 / 4.06	5/9 (3.68)
G24H+K50F+G94K	ND / ND / 3.04	0/9
G24A+Y30M+A32Q	3.54 / 2.87 / ND	2/9 (3.39)
S88E+D91W+F98K	ND / ND / ND	0/9
R28G+G94R+F98G	4.06 / 5.83 / 4.56	0/9
Y29D+G49P+S89Y	3.84 / ND / 4.03	3/9 (2.86)
E23C+D25A+S26N	2.93 / 3.46 / 3.67	2/9 (3.21)

Extract of 5 entries:

changes	log10 Kd (nM) by replicate	empty controls
Y29S+S88A+Q96Y	1.53 / 1.45 / 1.13	3/9 (3.57)
G24P+R90P+Q96Y	ND / 4.80 / ND	3/9 (4.24)
N33K+S88R+R90A	ND / 5.56 / ND	5/9 (3.45)
Y31N+Q96W+V97W	3.52 / 2.43 / 3.48	2/9 (3.67)
Y30S+N33V+Q96H	2.51 / 2.91 / 3.93	2/9 (3.58)

Parent in this assay: reference entry 2.31, copy in this library 2.25.